Laboratory results taken from article PMC8777613, “Effect of Hydroxyl Groups Esterification with Fatty Acids on the Cytotoxicity and Antioxidant Activity of Flavones” (Molecules, 2022).

Columns and labels:
[1] = tested on: human immortal keratinocyte cells (HaCaT); assay: MTT dye reduction viability test, HaCaT; format: cell-based
Description: (§1) The cytotoxic effect of 6-hydroxy-flavanone and 7-hydroxy-flavone and their conjugates was evaluated by MTT dye reduction assay, measuring mitochondrial respiratory functions. We have chosen two types of cell culture lines: human prostate cancer cells (PC3) and normal human immortal keratinocyte cells (HaCaT) (Table 1).
(§2) Human prostate cancer cells (PC3) and human immortal keratinocyte cell line from adult human skin (HaCaT) were obtained from American Type Culture Collection (Teddington, UK) and cultured according to its instructions RPMI 1640 (L0490) medium or DMEM (L0102) medium, respectively, in a 95% air and 5% CO2 humidified incubator at 37 °C. Both media (Biowest) were supplemented with 10% fetal bovine serum (FBS), 100 U/mL penicillin and 100 μg/mL streptomycin. 10 mM stock solutions of tested compounds in DMSO were prepared.
(§3) To assess the cells growth inhibition, the MTT dye reduction test was preformed based on the method described by Präbst et al.. Both PC3 and HaCaT cells (1 × 10^3/well) were seeded into 96-well plates and incubated for 24 h to attach to the bottom of the well in appropriate medium (200 μL) and treated with tested compounds (0–100 μM). The medium with compounds was removed after 72 h and MTT (0.5 mg/mL) in fresh growth medium without serum was added to each well. The plates were incubated in dark for 4 h at 37 °C. Then, the solution in each well was removed and refilled with 100 μL DMSO: isopropanol (1:1) to dissolve formazon crystals. The optical density was measured with an UVM 340 (ASYS Hitech GmbH, Austria) microplate reader at 570 nm. Replicates of three wells for each dosage, including vehicle control, were analyzed for each experiment. The experiments were conducted in triplicate. The results are expressed as IC50 values. The value of IC50 was estimated using CompuSyn version 1.0.

[2] = tested on: human prostate cancer cells (PC3); assay: MTT dye reduction viability test, PC3; format: cell-based
Description: as §1, §2, §3

**Q.** What does the source list for “7-Hydroxy-Flavanone [Compound 7, reference compound]”?
**A.** Cells viability ([1]; 10 µM): 97.17%; Cells viability ([1]; 20 µM): 102%; Cells viability ([1]; 40 µM): 96.70%; Cells viability ([1]; 60 µM): 84.03%; Cells viability ([1]; 80 µM): 93.41%; Cells viability ([1]; 100 µM): 86.46%; Cells viability ([2]; 10 µM): 79.7%; Cells viability ([2]; 20 µM): 83.9%; Cells viability ([2]; 40 µM): 79.3%; Cells viability ([2]; 60 µM): 68.9%; Cells viability ([2]; 80 µM): 76.6%; Cells viability ([2]; 100 µM): 70.9%
